# Data: PMC10825183 (Nature Communications, 2024)
# Chains of the proteins cited; added tags and fusions are not shown. Residues count along the entry.
# UniProt Q9UL51, 521-706 L670G/L671G/D698A: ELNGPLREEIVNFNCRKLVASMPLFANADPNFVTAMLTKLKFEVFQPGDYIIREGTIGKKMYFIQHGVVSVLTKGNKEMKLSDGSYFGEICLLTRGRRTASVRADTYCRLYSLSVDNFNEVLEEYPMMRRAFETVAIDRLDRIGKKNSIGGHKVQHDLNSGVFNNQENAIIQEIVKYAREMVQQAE
# Tests used:
# [1] = molecular target: T1, human HCN2 CNBD L670G - L671G - D698A (Homo sapiens, UniProt Q9UL51, D698A/L670G/L671G); experiment: biochemical
# [2] = molecular target: T1, human HCN2 CNBD L670G - L671G - D698A; details: cAMP titrant
structure (smiles),measurement,setting,value
"Nc1ncnc2c1ncn2[C@@H]1O[C@@H]2COP(=O)(O)O[C@H]2[C@H]1O [cAMP, Adenosine 3′,5′-cyclic monophosphate]",Kd,"[1]; KD of individual experiments (source data Fig. 7c), cAMP titrant, unit inferred",6.67 µM and 6.53 µM and 7.04 µM
same,Kd,"[1]; KD, cAMP titrated into 20 µM CNBD, 25 °C, mean ± SEM, n = 3",6.7 ± 0.2 µM
same,Kd,"[1]; KD, representative sample (Fig. 7b), cAMP titrant, single ITC experiment",6.6 µM
same,stoichiometry (N),"[2]; mean ± SEM, n = 3",0.9 ± 0.1
same,"N, representative sample (Fig. 7b)",[2]; single ITC experiment,0.9

# Where “and” joins values, the source holds several entries; their conditions need not be identical. Equal entries are not always repeated.
